pKi: −log10 of the molar value.
Legend:
[1] = target: human norepinephrine transporter (Homo sapiens, UniProt P23975); assay: Norepinephrine transporter binding assay ([3H]desipramine competition, MDCK cell membranes); conditions: read-out: NET Affinity; competition with [3H]desipramine 2 nM, 2 h on ice
Protocol: Individual inhibitors were dissolved in incubation buffer (50 mM Tris-HCl, 10% sucrose, pH 7.4) at appropriate dilutions. The inhibitor solutions were added to the wells of a microtiter plate (40 μL/well) in triplicate. Each well of test agent (and appropriate control wells) was treated with a mixture of MDCK cell membrane preparation (22.4 μg of membrane) expressing human norepinephrine transporter (Bmax=3.7 pmol norepinephrine transporter/mg protein), and [^3H]desipramine (2 nM, 64.8 Ci/mmol) in a total volume of 0.2 mL. The resulting mixtures were incubated for 2 h on ice.
A 96 well GF/C filter plate was presoaked with coating buffer (0.5% polyvinylpyrrolidine and 0.1% Tween 20) for 2 h at room temperature, then washed with incubation buffer (6×0.2 mL). The competition reactions were transferred to the coated plate and filtered. The filter plate was washed (6×0.2 mL) with ice cold wash buffer (50 mM Tris-HCl, 0.9% NaCl, pH 7.4) then dried overnight and treated with 25 μL scintillation fluid for analysis on a plate reader (Microbeta TriLux 1450 LSC and Luminescence counter, Perkin Elmer, Shelton Conn.).

Sequences of proteins named here, by UniProt entry; tags and fusion partners are left off.
UniProt P23975, whole entry: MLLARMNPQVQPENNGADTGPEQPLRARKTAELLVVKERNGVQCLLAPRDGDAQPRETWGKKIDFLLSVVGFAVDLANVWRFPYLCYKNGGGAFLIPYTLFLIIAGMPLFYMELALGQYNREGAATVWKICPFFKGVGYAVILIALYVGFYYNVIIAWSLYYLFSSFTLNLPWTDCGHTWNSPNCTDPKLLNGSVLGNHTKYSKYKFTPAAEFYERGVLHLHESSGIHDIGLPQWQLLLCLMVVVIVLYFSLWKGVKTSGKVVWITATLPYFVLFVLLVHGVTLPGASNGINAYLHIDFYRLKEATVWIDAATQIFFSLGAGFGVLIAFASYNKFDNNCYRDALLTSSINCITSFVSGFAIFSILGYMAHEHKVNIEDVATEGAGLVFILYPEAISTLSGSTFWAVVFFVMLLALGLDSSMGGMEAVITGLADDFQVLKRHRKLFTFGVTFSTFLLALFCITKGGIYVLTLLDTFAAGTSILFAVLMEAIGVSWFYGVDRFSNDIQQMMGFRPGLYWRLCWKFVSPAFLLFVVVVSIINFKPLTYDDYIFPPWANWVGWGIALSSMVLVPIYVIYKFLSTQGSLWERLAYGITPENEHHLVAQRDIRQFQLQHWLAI

[2] = test system: PC-12 cells; assay: PC-12 binding assay (cell uptake with or without desipramine); conditions: 0.1 μCi test agent, 60 min at 37° C.; for PC-12 (% bound) Block: with 1 μM desipramine (nonspecific uptake); for PC-12 (% bound) Control: without desipramine (total uptake)
Protocol: Rat pheochromocytoma cell line (PC-12) were purchased from the American Type Culture Collection (ATCC) then cultured in collagen-coated flasks (BD Bio Coat Collagen Type 1, BD Biosciences) using a growth media composed of F-12 K media, 2 mM L-glutamine, 15% horse serum, 2.5% fetal bovine serum (FBS) and 1% penicillin-streptomycin.
Prepared PC-12 cells were seeded into 6-well plates at a density of 1×10^6 cells/well with 2 mL of growth media and maintained 24 h at 37° C. under a 5% CO2 atmosphere. The media was exchanged and each well treated with 0.1 μCi test agent, with or without 1 μM desipramine. The resulting mixture was incubated for 60 min at 37° C. and 5% CO2 then centrifuged at 500×g for 3 min and washed with PBS buffer. Radioactivity associated with the cells was then measured, and total uptake determined in the wells without desipramine; nonspecific uptake was measured in the associated wells containing desipramine. The specific NET mediated cell uptake is calculated as percent total uptake minus percent nonspecific uptake.

[3] = Tissue distribution in rats; conditions: bolus iv injection
Protocol: (§1) Male Sprague Dawley rats (300-500 g, Taconic), and male New Zealand rabbits (3-4 kg, Covance) were used in accordance with our Institutional Animal Care and Use Committee. Rats were anesthetized with sodium pentobarbital (50 mg/kg, i.p.) and the left femoral vein cannulated with PESO tubing for drug injection. Rabbits were pre-sedated with acepromazine (0.75 mg/kg i.m.) then anesthetized with ketamine (40 mg/kg, i.m.) and xylazine (8 mg/kg, i.m); the marginal ear vein was cannulated for drug injection. Additional doses of anesthetics were given as needed.
(§2) After preparation, each animal received a bolus injection of the test agent via the venous catheter. Rats and rabbits were euthanized after the injection and samples of the blood, heart, lung, liver, spleen, kidney, femur and muscle were collected. All samples were weighed and counted for radioactivity (Wallac Wizard 1480, PerkinElmer Life and Analytical Sciences, Shelton, Conn.); net radioactivity administered in each animal was determined by subtracting the residual activity in both the syringe and venous catheter. Tissue uptake of each agent was determined as a percentage of the injected dose per gram tissue (% ID/g).

[4] = Tissue distribution in rabbits; conditions: bolus iv injection
Protocol: as §1, §2

| Structure (SMILES) | pKi [1] | PC-12 (% bound) Block [2] [% bound] | PC-12 (% bound) Control [2] [% bound] | further results |
| --- | --- | --- | --- | --- |
| C[N+]1(CCF)CCN(c2ccc(F)cc2)CC1 | 4.15 | – | – | – |
| NCCc1c[nH]c2ccc(OCCF)cc12 | 4.72 | 0.00 | 0.00 | – |
| C[N+]1(C)CCN(c2ccc(OCCF)cc2)CC1 | < 4.13 | – | – | – |
| N=C(CF)NCc1cccc(Br)c1 | 5.31 | 0.90 | 2.10 | – |
| OCCc1cn(Cc2cccc(Cl)c2)nn1 | < 4.13 | – | – | – |
| N=C(N)NCCc1cn(CCF)c2ccc(O)cc12 | 5.69 | 0.10 | 0.10 | – |
| C=Cc1cn(Cc2cccc(Cl)c2)nn1 | 4.49 | – | – | – |
| N=C(CF)NCc1cccc(C(F)(F)F)c1 | < 4.13 | – | – | – |
| N=C(N)NCc1ccc(NC(=O)CF)c(O)c1 | < 4.13 | – | – | – |
| N=C1N(CCF)CCN1Cc1cccc(Br)c1 | 5.51 | 3.30 | 3.90 | – |
| N=C(CF)NCc1cccc(Cl)c1 | 5.19 | 0.50 | 1.40 | – |

Now from value to compound, other results behind:

| pKi [1] | PC-12 (% bound) Block [2] [% bound] | PC-12 (% bound) Control [2] [% bound] | Structure (SMILES) | further results |
| --- | --- | --- | --- | --- |
| 5.39 | – | – | N=C(N)N/C=C/c1ccc(OCCF)cc1 | – |
| < 4.13 | – | – | CN1CCN(C(=N)NCc2ccc(OCCF)c(Br)c2)CC1 | – |
| 4.89 | – | – | FCCOc1ccc(CCNc2nccs2)cc1Cl | – |
| 5.81 | – | – | N=C(N)N/N=C/c1ccc(OCCF)c(Br)c1 | – |
| 5.10 | 0.10 | 0.10 | N=C(N)NOCc1ccc(OCCF)c(Br)c1 | – |
| 4.99 | 2.20 | 12.20 | N=C(N)NCCNc1ccc(OCCF)cc1 | – |
| < 4.13 | – | – | N#Cc1cc(CNC(=N)N)ccc1OCCF | – |
| 3.94 | – | – | FCCOc1ccc(CCNc2ncccn2)cc1Cl | – |
| 5.00 | 0.70 | 1.40 | N=C(N)NCc1ccc(CCCF)c(Br)c1 | Rat Blood ([3]; blood): 0.11 ± 0.02 % ID/g; Rat Heart ([3]; heart): 1.60 ± 0.13 % ID/g; Rat Liver ([3]; liver): 0.30 ± 0.12 % ID/g; Rat Lung ([3]; lung): 0.80 ± 0.09 % ID/g; Rabbit Blood ([4]; blood): 0.013 % ID/g; Rabbit Heart ([4]; heart): 0.066 % ID/g; Rabbit Liver ([4]; liver): 0.021 % ID/g; Rabbit Lung ([4]; lung): 0.078 % ID/g |
| 5.10 | 0.70 | 2.40 | CCc1ccc(CNC(=N)N)cc1 | – |
| 4.23 | – | – | N=C(N)Nc1ccc(OCCF)c(Cl)c1 | – |
| 5.70 | – | – | FCCOc1ccc(CCNc2nc3ccccc3[nH]2)cc1Cl | – |
